## AlphaSeq binding of Ab-91 heavy chain variants to a spike HR2 peptide

Data: MIT Lincoln Laboratory AlphaSeq set, Engelhart et al. 2022, doi:10.1038/s41597-022-01779-4, as distributed in FLAb.

Binding partner: SARS-CoV-2 spike HR2 peptide, sequence PDVDLGDISGINAS.

The variants keep the light chain, the linker and the frameworks of Ab-91 (scFv order VL, a (GGGGS)3 linker, VH).
VL: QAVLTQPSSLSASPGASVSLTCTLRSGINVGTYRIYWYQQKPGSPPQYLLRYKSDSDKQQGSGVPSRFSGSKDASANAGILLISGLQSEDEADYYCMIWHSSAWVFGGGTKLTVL
VH: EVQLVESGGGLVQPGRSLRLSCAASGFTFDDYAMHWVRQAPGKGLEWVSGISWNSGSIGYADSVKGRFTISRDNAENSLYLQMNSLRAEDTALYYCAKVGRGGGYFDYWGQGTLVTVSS

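Phage display of a naive human antibody library on the peptide gave the parent. In library AAYL51, one, two or three CDR residues were substituted; doubles and triples were drawn at random. AlphaSeq pools MATa yeast showing the antibodies with MATalpha yeast showing the peptide. Pairs that bind mate more often; barcode pairs of the diploids are counted by sequencing. Scores were corrected for input abundance and mapped to Kd with protein pairs of known affinity run in the same pool. Each pool was mated in three replicate cultures.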

Variants are written as CDR1, CDR2 and CDR3 of the heavy chain (limits as in the source). Parent: GFTFDDYAMH, GISWNSGSIGYADSVK, VGRGGGYFDY. Every variant below is changed at S52 of the VH (sequential numbering). Scale: log10 of Kd in nM, estimated from mating counts; low values are strong binders. A mean of the replicates is given; it leaves out those without a signal. Where no diploid with the target was found in any replicate, the entry reads "nd": below detection, most likely a poor binder, though not proof of it. Nonspecific signal, from three strains lacking the peptide, appeared in 21% of pairings of library AAYL51, centred on 4.54 (5% of these signals below 3.26); values are not corrected for it. For reference, the parent read 1.86 as the reference entry and 0.88 as a member of this library.

With GFTFDDYAMH | GIKWNSGSIGYADSVK | VGRGGGYFDY the result was 4.41 (2 of 3 replicates). For GFTFDDYAMH | GIQWNSGSIAYADSVK | VGRGGGYFDY, the assay gave nd (0 of 3 replicates). For GFDFDDYAMW | GIVWNSGSIGYADSVK | VGRGGGYFDY, the assay gave nd (0 of 3 replicates). Variant GFTFDDYAMH | GIFWSSGSIGYADSVK | VGRGGGYFDY showed nd (0 of 3 replicates). Variant GFFFDDYAMH | GIHWNMGSIGYADSVK | VGRGGGYFDY showed 4.14 (2 of 3 replicates). Variant GFTFDDYAMH | GIYWNSGSIGYADSVH | VGRGGGYFDY showed nd (0 of 3 replicates). For GFTFFDYAMH | GIWWNSGSIGYADSVK | VGRGGGCFDY, the assay gave 4.93 (1 of 3 replicates). Variant GFTFRDYAMH | GITWNSGSIGYADSVK | VGRGGGYFDC showed 3.83 (3 of 3 replicates).

Variant GFTFDTYAMH | GIHWNSGSIGYADSVK | VGRGGGYFDY gave 4.77 (2 of 3 replicates). Variant GFTFDDYAMH | GIPWNSGSIGYADSVK | FGEGGGYFDY gave 3.70 (1 of 3 replicates). For GFHFDDYAMH | GIDWNSGSVGYADSVK | VGRGGGYFDY, the assay gave 2.16 (3 of 3 replicates). Variant GFTFDDYARH | GITWNSGSIGYADSVK | VGRGGGYFDY gave 3.96 (1 of 3 replicates). With GFTFDDYAMH | GIMHNSCSIGYADSVK | VGRGGGYFDY the result was 2.92 (1 of 3 replicates). For GFTFDDYAMH | SIFWNSGSIGYADSVK | VGRGGGYFDC, the assay gave 3.67 (1 of 3 replicates). For GFTFDDYAMH | GIKWNSGSIGYADSVK | VGRGGKYFDY, the assay gave nd (0 of 3 replicates). With GFTFDDYAMH | GINWNSGSIGYADSVK | VGRGGLYMDY the result was 5.54 (2 of 3 replicates).

Variant GFHFDDYAMH | GICWNSGSIGMADSVK | VGRGGGYFDY showed nd (0 of 3 replicates). With GFTMDFYAMH | GIFWNSGSIGYADSVK | VGRGGGYFDY the result was 2.97 (1 of 3 replicates). For GFTFDDYAMH | GIQWNSGSIGYADSVK | VGTGGGYFDY, the assay gave 3.40 (3 of 3 replicates). Variant GFTFDDYAMH | GIRWNSGSIGYADTVK | VGRGGGYFDY gave 3.42 (1 of 3 replicates). Variant GFTFDDYAMH | GIAWNSGLIGYADSVK | VGRGGGYFDV showed 4.89 (3 of 3 replicates). Variant GFTFDDYAMH | LIRWNSGSIGYADSVK | VGRGGLYFDY showed 5.50 (2 of 3 replicates). With GFWFDDYAMH | GIFWNSGSIGYADSVK | DGRGGGYFDY the result was nd (0 of 3 replicates). For GPTFDDYAMH | GIFWNYGSIGYADSVK | VGRGGGYFDY, the assay gave nd (0 of 3 replicates).

For GSTFDDYAMH | GIQWNSGSIGYADSVK | VGRGGGYFDY, the assay gave nd (0 of 3 replicates). Variant GFTFDDYAMH | GINWNGGSIGYADSVK | VGRGGGYFDY showed 1.58 (3 of 3 replicates). Variant GFTFDDYAMH | GIEWNSGSLGYADSVK | VGRGGGYQDY gave nd (0 of 3 replicates). Variant PFTFDDYAMH | TIFWNSGSIGYADSVK | VGRGGGYFDY gave nd (0 of 3 replicates). Variant CFTFDDYAMH | GIIWNSGSIGYADSVK | VCRGGGYFDY gave 3.98 (1 of 3 replicates). Variant GFTFDDYAMH | GIGWNSGSIGYADSVA | VGRGGGYNDY gave nd (0 of 3 replicates). For GFTFDDYAMH | GIDWNSGSIGYADSKK | VGRGGGMFDY, the assay gave 5.35 (1 of 3 replicates). For GFGFDDYAMH | GICWNSGSWGYADSVK | VGRGGGYFDY, the assay gave 4.33 (2 of 3 replicates).

With GFTFDDYAMR | GIPWNSYSIGYADSVK | VGRGGGYFDY the result was 5.73 (3 of 3 replicates). Variant GFTFDDYAMH | GMVWNSGSIGYADSVK | VGRRGGYFDY gave 4.87 (1 of 3 replicates). Variant GFTFDWGAMH | GIFWNSGSIGYADSVK | VGRGGGYFDY showed nd (0 of 3 replicates). Variant GFHFDDYAMH | GIEWNSGSIGYLDSVK | VGRGGGYFDY showed 4.66 (2 of 3 replicates). With GFTFDDYAMH | GRWWNSGKIGYADSVK | VGRGGGYFDY the result was 5.99 (1 of 3 replicates). For GFTFDDYAGH | GILWNSGSIGYADKVK | VGRGGGYFDY, the assay gave 4.73 (3 of 3 replicates). Variant GFTFDDYAMH | GIHWNSVSIGYADSVK | VGKGGGYFDY showed 2.56 (1 of 3 replicates). For GFTEDDYAMH | GMHWNSGSIGYADSVK | VGRGGGYFDY, the assay gave nd (0 of 3 replicates).

Variant GFTFDDRAMH | GIKWNSGSIGYADSVK | VGRGGGYEDY showed nd (0 of 3 replicates).